# From PubChem BioAssay
# HCMV NEC inh: cytomegalovirus nuclear egress complex inhibition; 0.15% of 190,000 active; AID 1918969; inhibition, % (test concentration not listed); HTRF UL50-UL53 interaction, normalized percent inhibition; in the data active = inhibition above about 27%, passing the limit was not always enough
# GIV-Gai inh: inhibitors of GIV GBA-motif binding to rat Galpha-i3; P08753; Galpha-i3/FITC-GIV peptide fluorescence polarization, 90 min; hits give low values; scaled: aluminum fluoride 0%, vehicle 100%; percent of control (FP), % (no concentration beside the values); 210,000 compounds, 0.42% hits;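 active means replicate mean at 85% of control or lower, very high polarization wells dropped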;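 further: wells of about 15 µL received 100 nL stock; the first replicate is given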
# Numbers stand for hits; 0 = inactive; - = not tested or not shown; ! = not confirmed by another sample. Only some compounds are listed: those with a hit (about 0.46% of all), similar ones and a draw of the others.
SMILES,HCMV NEC inh,GIV-Gai inh
CCOC(=O)C1CCCN(C(=O)Cn2c(=O)c3ccccc3n3c(=S)sc(-c4cccc(F)c4)c23)C1 (stereo not drawn),0,77
CCOC(=O)C1CCCN(C(=O)Cn2c(=O)c3ccccc3n3c(=S)sc(-c4ccc(Cl)cc4)c23)C1 (stereo not drawn),0,0
COc1cccc2c1OC1(C)NC(=O)NC2C1C(=O)Nc1cccc(Cl)c1 (stereo not drawn),0,0
CN1/C(=C/C=C/c2oc3ccccc3[n+]2C)Oc2ccccc21,-,-5.9
CC(=O)Nc1c2c3c(cccc3n(C)c1=O)C(=O)c1ccccc1-2,-,0
COCCCNc1c2c3c(cccc3n(C)c1=O)C(=O)c1ccccc1-2,-,-62
CC(C)c1cccc(NC(=NCc2ccncc2)NC(=O)c2ccc3c(c2)OCO3)c1,0,0
N#Cc1c(S/C=C(\O)c2ccccc2)nc2c(c1C(F)(F)F)CCCC2,0,-44
N#Cc1c(N=CN2CCCCC2)nc2c(c1-c1ccccc1)CCCC2,0,0
CCOC(=O)c1c(-c2cccs2)csc1/N=C/c1c(O)n(C)c2ccccc12,-,44
CCOC(=O)c1c(-c2cccs2)csc1NC=O,-,0
CCOC(=O)c1c(/N=C/c2c(O)n(C)c3ccccc23)sc2c1CCC2,-,0
CCOC(=O)c1c(/N=C/c2c(O)n(C)c3ccccc23)sc(C)c1C,-,52
CCN(Cc1ccc(Cl)cc1)Cc1cc(=O)n2nc(C)sc2n1,-,0
CCC(=O)Oc1ccc2cc(-c3nc4ccccc4n3C)c(=O)oc2c1,0,-
CCN(CC)c1ccc2cc(-c3nc4ccccc4s3)c(=O)oc2c1,0,0
CCN(CC)c1ccc2cc(-c3nc4ccccc4n3C)c(=O)oc2c1,0,-24
CCN(CC)c1ccc2cc(-c3nc(-c4ccc(Cl)cc4Cl)cs3)c(=O)oc2c1,-,-69
Cc1nn(-c2ccc(N3CCCC3)nn2)c(C)c1CCC(=O)NC1CCN(Cc2ccccc2)CC1,0,0
C=CCn1c(=O)c(C(=O)NCc2cccnc2)c(O)c2ccccc21,0,-
Cc1ccc(-c2nc(CSc3nc(-c4ccccc4)cc(=O)[nH]3)c(C)o2)cc1,0,0
CSc1nnc2c(n1)OC1(Nc3ccccc3-2)C(=O)Nc2ccc([N+](=O)[O-])cc21 (stereo not drawn),34,0
CSc1nnc2c(n1)OC(c1ccc([N+](=O)[O-])cc1)Nc1ccccc1-2 (stereo not drawn),-,0
O=C(Cn1nnc(-c2ccccc2)n1)NCCC1=CCCCC1,0,0
O=C(Nc1nnc(-c2ccc3c(c2)CCCC3)o1)c1ccc(NS(=O)(=O)c2ccc(F)cc2)cc1,0,0
SMILES,HCMV NEC inh,GIV-Gai inh
Cc1cc(C)c2cc3c(cc2n1)CCN3CC(O)CO (stereo not drawn),0,-26
CCCSc1nc2cc(C)c(C)cc2n1CC(O)CO (stereo not drawn),0,-
COC(=O)CSc1sc(=O)sc1SCC#N,-,0
Cc1ccc(C(=O)CSc2nc(C)cc(SCC#N)n2)cc1,0,0
Cc1ccc(N2C(=O)NC(=O)/C(=C/c3cc(Br)c(O)cc3O)C2=O)cc1,0,-71
Cc1ccc(N2C(=O)NC(=O)/C(=C\c3ccc(O)c(Br)c3)C2=O)cc1,0,0
COc1ccc(C(=O)NCCc2csc(-c3ccccc3)n2)cc1Cl,0,0
Cc1ccc(C2C3=C(CC(C)(C)CC3=O)Nc3ccccc3N2C(=O)NCC2CCCO2)cc1 (stereo not drawn),-,0
COc1ccccc1NC(=O)Nc1ccnn1Cc1ccccc1,85,-
COc1ccccc1NC(=O)Nc1ccnn1C1CCCCC1,0,-
O=C(CSc1ncnc2ccccc12)Nc1ccccc1C(F)(F)F,0,-
NC(=S)c1cc2ccc(O)cc2oc1=O,0,0
NC(=S)c1cc2ccccc2oc1=O,-,6.0
O=S(=O)(c1ccc(Cl)cc1)N1CCC(n2c(C(F)(F)F)nc3cccnc32)CC1,0,0
O=C1C=CC(=O)N1CC(c1ccccc1)c1ccccc1,0,-
CC(C(=O)Nc1cccc(N=Cc2c(O)ccc3ccccc23)c1)c1ccccc1 (stereo not drawn),0,-
Oc1ccc2ccccc2c1C=NCc1ccccc1,60,0
CN/N=C/c1c(O)ccc2ccccc12,49,-
CC(NC(=O)c1ccccc1N=Cc1c(O)ccc2ccccc12)c1ccccc1 (stereo not drawn),68!,-
Oc1ccc2ccccc2c1/C=N/c1ncccn1,99,-
O=CN/N=C/c1c(O)ccc2ccccc12,0,-
O=c1oc2ccccc2c(O)c1/C=N/c1ncccn1,0,-
O/N=C/c1c(O)ccc2ccccc12,0,0
Cc1ccccc1C(=O)Nc1cccc(OCc2cc(=O)n3ccccc3n2)c1,-,0
O=S(=O)(/N=C/c1c(O)ccc2ccccc12)c1cccs1,98,-
O=S(=O)(/N=C\c1cc(Br)ccc1O)c1cccs1,0,-
Cc1c(N=C/C=C2\N(C)c3ccccc3C2(C)C)c(=O)n(-c2ccccc2)n1C,0,-
CN1/C(=C\C=C2\C(=O)Oc3ccccc3C2=O)C(C)(C)c2ccccc21,-,-32
